For one assay, the target named is Bcl-2 (Homo sapiens, UniProt P10415). Nature of the assay: Bcl-2 binding affinity analysis (fluorescence polarization binding assay). Particulars: read-out: Bcl-2 binding affinity Ki. From the text: (§1) Bcl-2 and Bcl-xL binding can be determined using a variety of known methods. One such assay is a sensitive and quantitative in vitro binding assay using fluorescence polarization (FP) described by Wang, J. -L.; Zhang, Z -J.; Choksi, S.; Sjam. S.; Lu, Z.; Croce, C. M.; Alnenri, E. S.; Komgold, R.; Huang, Z. Cell permeable Bcl-2 binding peptides: a chemical approach to apoptosis induction in tumor cells. Cancer Res. 2000, 60, 1498-1502).
(§2) Bcl-2 and Bcl-xL binding affinity analysis data is presented below for various compounds of the invention.
(In general: Polarisation of emitted light reports the rotation of a fluorescent probe.)

The chains behind the UniProt entries cited, without tags or fusion partners.
UniProt P10415, whole entry: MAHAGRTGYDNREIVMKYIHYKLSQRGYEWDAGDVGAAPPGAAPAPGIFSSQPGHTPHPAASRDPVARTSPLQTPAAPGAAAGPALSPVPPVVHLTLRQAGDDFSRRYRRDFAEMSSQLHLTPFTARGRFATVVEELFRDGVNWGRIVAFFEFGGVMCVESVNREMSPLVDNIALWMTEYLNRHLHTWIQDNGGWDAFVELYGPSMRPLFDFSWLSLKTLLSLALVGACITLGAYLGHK
UniProt Q07817, whole entry: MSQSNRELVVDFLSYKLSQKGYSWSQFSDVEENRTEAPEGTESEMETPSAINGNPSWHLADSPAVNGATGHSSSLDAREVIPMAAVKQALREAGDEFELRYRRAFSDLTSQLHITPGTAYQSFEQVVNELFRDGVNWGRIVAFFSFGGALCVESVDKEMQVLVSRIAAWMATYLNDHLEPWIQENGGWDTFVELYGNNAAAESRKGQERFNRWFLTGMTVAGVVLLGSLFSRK

The next assay concerns the target Bcl-xL (Homo sapiens, UniProt Q07817). As to the kind of experiment: Bcl-xL binding affinity analysis (fluorescence polarization binding assay). More on the design: scale not given here.
Source text: as §1, §2

The subject of assay [1] is RL Human Follicular Lymphoma Cell Line. Nature of the assay: Alamar blue cytotoxicity assay in RL cells. The conditions noted are these: read-out: Bcl RL Alamar Blue IC50, 72 h incubation. How it is done:
(§3) When RL-cells are exposed to isoxazolidine compounds of the present invention, the inhibitors show a dose-dependent cell-killing in the Alamar blue cytoxicity assay with IC50 values of from about 100 μM to about 1 μM (See Examples). When Panc1 cells are exposed to the isoxazolidine compounds of the present invention in combination with camptothecin, the inhibitors show a synergistic dose-dependent cell killing in the propidium iodide exclusion cell survival assay with IC50 values of from about 100 μM to about 1 μM (See Examples).
• 1) Using 96 well plates, compounds were serially diluted in DMSO from 9 mM to 4 uM • 2) Assay plates were prepared by diluting samples 310 fold into 150 ul of medium containing 30,000 cells/well resulting in a final DMSO concentration of 0.3% and a concentration range from 29 uM to 0.013 uM for each compound. • 3) Plates were incubated at 37 C and 5% CO2 for 72 h • 4) After 72 h, Alamar blue reagent was added to each well and plates read according to manufacturer's instructions
In vitro cytotoxicity data for RL cells is presented below for various compounds of the invention.

Assay [2] concerns Human Pancreatic Cancer Cell Line Panc1. As to the kind of experiment: Cell death assay (propidium iodide/Hoechst) in Panc1 cells with or without camptothecin. How it is done: as §3
• 1) Compounds were serially diluted in DMSO from a 9 mM stock to a final concentration of 0.004 mM in a 96 well plate. • 2) Assay plates were prepared by diluting compounds 310 fold into 150 ul of medium containing 10,000 cells/well, with or without 3 uM Camptothecin, resulting in a final DMSO concentration of 0.3% and a compound concentration range from 29 uM to […] for each compound. • 3) Assay plates were incubated at 37 C, 5% CO2 for 72 hours. • 4) After 72 hours, propidium iodide and Hoechst dye were added to each well according to manufacturer's instruction. • 5) Plates were imaged on a fluorescence microscope at wavelengths Ex560/Em650 (Propidium iodide) and Ex360/Em465 (Hoechst) • 6) MetaMorph imaging software was used to determine % cell death by dividing the number of propidium iodide stained cells (dead cells) by the number of Hoechst stained cells (all cells), multipled by 100, in each field.
Panc1 invitro cellular data is presented below for various compounds of the invention.

The mark [3] stands for this setting: read-out: Panc1 + Cpt IC50, with 3 uM Camptothecin, 72 hours, % cell death by propidium iodide/Hoechst.
Where [4] appears, read: read-out: Panc1 − Cpt IC50, without camptothecin, 72 hours, % cell death by propidium iodide/Hoechst.

Where two headings read alike, the source gives them in different places. Where only a bound is given, the exact number is not on record here.

Broadly, the Ki is a dissociation constant, usually derived from enzyme kinetics or from competition with a known ligand.

On to `CC(C)[C@H](CN(C)C)N(Cc1ccccc1)Cc1cccc(CN2O[C@@H](CO)[C@@H]([C@H](C)O)[C@H]2C(=O)N[C@H]2C[C@H]3C[C@@H]([C@@H]2C)C3(C)C)c1`, for which, at Bcl-2, the Ki is < 800 nM. Further, the “Bcl-XL binding affinity Ki” value on Bcl-xL is reported as “♯”. Moreover, the IC50 in assay [1] is > 5 µM; in assay [2] (setting [3]), > 2500 nM; in assay [2] (setting [4]), > 2500 nM.

On to `C[C@@H]1[C@@H](NC(=O)[C@@H]2C([C@H](C)O)[C@H](CO)ON2Cc2cccc(CN(CCc3ccccc3)CCN(C)C)c2)C[C@H]2C[C@@H]1C2(C)C` (stereo partly shown), for which the Ki at Bcl-2 is < 800 nM. Further, the “Bcl-XL binding affinity Ki” value on Bcl-xL is recorded as “♯”. In addition, the IC50 in assay [1] is 2 to 5 µM; in assay [2] (setting [3]) it was 1300 to 1800 nM; in assay [2] (setting [4]) it was 1800 to 2500 nM.

The values are drawn from patent US7851637B2, “Compounds and methods for inhibiting the interaction of BCL proteins with binding partners” (Infinity Pharmaceuticals, Inc., priority 2004, dated 2010).
